A short description of the assay: The activity in the LAF assay is best expressed as a ratio of the rapamycin IC50 (1-9 nM) /analogue IC50 (R/A). The class given is functional.

Regarding `CO[C@H]1C[C@@H]2CC[C@@H](C)[C@@](O)(O2)C(=O)C(=O)N2CCCC[C@H]2C(=O)O[C@H]([C@H](C)C[C@@H]2CC[C@@H](O)[C@H](OC)C2)CC(=O)[C@H](C)/C=C(\C)[C@@H](O)[C@@H](OC)C(=O)[C@H](C)C[C@H](C)/C=C/C=C/C=C/1C` [SIROLIMUS], the Ratio stood at 3.
